# Test results from paper PMC8842224 (2022).
# The chains behind the UniProt entries cited, without tags or fusion partners.
# UniProt P30542, whole entry: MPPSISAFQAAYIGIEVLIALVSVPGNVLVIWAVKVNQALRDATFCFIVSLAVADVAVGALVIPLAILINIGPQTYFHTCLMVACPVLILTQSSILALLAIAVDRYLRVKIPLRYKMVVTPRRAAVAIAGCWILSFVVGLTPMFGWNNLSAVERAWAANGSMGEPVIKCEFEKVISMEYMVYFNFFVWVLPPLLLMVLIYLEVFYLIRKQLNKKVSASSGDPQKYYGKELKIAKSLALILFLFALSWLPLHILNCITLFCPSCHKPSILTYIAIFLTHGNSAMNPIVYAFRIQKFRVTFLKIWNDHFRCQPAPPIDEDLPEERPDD
# UniProt P0DMS8, whole entry: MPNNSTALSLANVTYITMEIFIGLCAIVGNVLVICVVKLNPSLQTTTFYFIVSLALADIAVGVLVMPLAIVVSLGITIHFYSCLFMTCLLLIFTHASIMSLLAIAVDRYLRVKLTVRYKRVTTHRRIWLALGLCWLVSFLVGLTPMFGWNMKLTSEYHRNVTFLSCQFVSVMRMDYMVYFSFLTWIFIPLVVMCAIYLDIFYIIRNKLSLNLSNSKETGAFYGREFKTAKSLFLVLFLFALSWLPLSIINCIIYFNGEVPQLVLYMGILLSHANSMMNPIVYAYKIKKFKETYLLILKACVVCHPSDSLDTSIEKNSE
# Target: T1, human A2BAR (Homo sapiens, UniProt P29275)
# T1 sequence (P29275 1-332): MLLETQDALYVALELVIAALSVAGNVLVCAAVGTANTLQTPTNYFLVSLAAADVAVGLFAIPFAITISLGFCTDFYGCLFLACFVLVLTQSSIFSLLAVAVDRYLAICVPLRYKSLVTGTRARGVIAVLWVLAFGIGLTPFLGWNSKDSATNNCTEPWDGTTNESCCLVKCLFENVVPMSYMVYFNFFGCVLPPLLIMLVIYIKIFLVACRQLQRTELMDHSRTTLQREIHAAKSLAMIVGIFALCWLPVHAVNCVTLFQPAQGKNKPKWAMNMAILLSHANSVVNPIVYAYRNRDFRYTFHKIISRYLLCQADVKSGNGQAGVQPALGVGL
# Assay: biochemical
# Conditions: read-out: hA2B percentage displacement of specific binding at 1 μM
row,SMILES,inhibition at 1 µM [%]
1,N#Cc1c(-c2ccccc2)nc(Nc2ccccc2)nc1-c1cccc(F)c1 [19k],9

# Target: human A1AR (Homo sapiens, UniProt P30542)
# Assay: not given
# Conditions: read-out: hA1 Ki; displacement of specific [3H]DPCPX binding, human CHO cells, ± SEM, n = 3
row,SMILES,Ki [nM]
1,N#Cc1c(-c2ccccc2)nc(N)nc1-c1ccccc1 [18a],4.42 ± 0.16

# Target: human A2AAR (Homo sapiens, UniProt P29274)
# Assay: not given
# Conditions: [3H]ZM241385, human HeLa cells, n = 2
row,SMILES,hA2A percentage displacement of specific binding at 1 μM [%]
1,CNc1nc(-c2ccccc2)c(C#N)c(C2CCCCC2)n1 [19bg],1
2,N#Cc1c(-c2ccccc2)nc(Nc2ccccc2)nc1-c1cc(Cl)cc(Cl)c1 [19al],1
3,N#Cc1c(-c2ccccc2)nc(N)nc1-c1c(F)cc(F)cc1F [18w],2
4,COc1ccc(-c2nc(Nc3ccccc3)nc(-c3ccc(OC)cc3)c2C#N)cc1 [19bn],2
5,CNc1nc(-c2ccccc2)c(C#N)c(-c2ccc(F)cc2F)n1 [19af],3
6,N#Cc1c(-c2ccccc2)nc(Nc2ccccc2)nc1-c1cc(F)cc(F)c1 [19ai],1
7,CNc1nc(-c2ccccc2)c(C#N)c(-c2ccccc2OC)n1 [19h],1

# Target: human A3AR (Homo sapiens, UniProt P0DMS8)
# Assay: biochemical
# Conditions: 3 h, read-out: hA3 percentage displacement of specific binding at 1 μM
row,SMILES,inhibition at 1 µM [%]
1,N#Cc1c(-c2ccccc2)nc(N)nc1-c1ccc(-c2ccccc2)cc1 [18ag],1
2,CNc1nc(-c2ccccc2)c(C#N)c(-c2ccoc2)n1 [19ax],1
3,CN(C)c1nc(-c2ccccc2)c(C#N)c(-c2cccc(Cl)c2)n1 [20b],2
4,CNc1nc(-c2ccccc2)c(C#N)c(-c2ccc(OC)cc2)n1 [19ab],1
